Target: GABA-AT (Sus scrofa (Pig), UniProt P80147)
Test: Time-dependent inhibition (inactivation) of GABA-AT, Kitz and Wilson replot
Assay type: biochemical
Conditions: pH 6.5, 25° C.; for kinact: Kitz and Wilson replot
Procedure: GABA-AT was isolated and purified from pig brain by a published procedure.
GABA-AT (17.5 μL) was incubated in the presence of varying concentrations of each compound (70 μL final volume) at 25° C. in 50 mM potassium pyrophosphate buffer solution, pH 6.5, containing 5 mM α-ketoglutarate and 1 mM β-mercaptoethanol. […] The relative enzyme activity was determined by normalizing the rate of increasing absorbance at 340 nm to a control. A Kitz and Wilson replot was used to determine the kinetic constants KI and kinact.

The chains behind the UniProt entries cited, without tags or fusion partners. Residues count along the entry.
UniProt P80147, 29-500 limits assumed: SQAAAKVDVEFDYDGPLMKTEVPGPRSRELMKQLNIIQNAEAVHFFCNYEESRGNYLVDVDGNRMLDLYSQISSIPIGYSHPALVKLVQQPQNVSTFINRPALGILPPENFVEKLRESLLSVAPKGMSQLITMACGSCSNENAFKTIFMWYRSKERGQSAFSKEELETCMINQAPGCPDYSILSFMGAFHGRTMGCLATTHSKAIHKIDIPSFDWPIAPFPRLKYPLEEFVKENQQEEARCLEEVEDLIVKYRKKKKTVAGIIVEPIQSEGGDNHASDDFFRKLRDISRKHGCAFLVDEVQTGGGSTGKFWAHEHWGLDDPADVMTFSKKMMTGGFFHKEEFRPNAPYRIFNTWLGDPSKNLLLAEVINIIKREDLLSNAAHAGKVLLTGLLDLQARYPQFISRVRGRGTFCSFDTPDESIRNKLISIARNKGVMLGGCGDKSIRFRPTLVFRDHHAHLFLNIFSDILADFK

Cl.N[C@@H]1CS[C@H](C(=O)O)C1 [Compound 17, (2S,4S)-4-Aminotetrahydrothiophene-2-carboxylic acid hydrochloride]
kinact/KI: 15.5 M⁻¹ s⁻¹ | kinact: 0.00283 s⁻¹

Cl.N[C@@H]1CS[C@@H](C(=O)O)C1 [Compound 18, (2R,4S)-4-Aminotetrahydrothiophene-2-carboxylic acid hydrochloride]
kinact/KI: 0.833 M⁻¹ s⁻¹ | kinact: 0.002 s⁻¹
